This is an account of results in paper PMC6675714 (Cancer Medicine, 2019).

Data set [1] in a line: Plasma pharmacokinetics after single ip injection (Ru by ICP‐MS). The data set is classed as in vivo. Particulars: 10 mg/kg single ip. As to the method:
Blood was collected from submandibular vein using a heparin coated glass capillary into heparinized blood collection tubes on ice at time intervals of 1, 2, 6, 12, 24, 48, and 72 hours post injection. Plasma was harvested by centrifuging blood samples at 2800 rpm for 15 minutes at 4°C and stored frozen at − 80°C until analysis. Similarly, kidney, liver, and tumor were harvested after final time point, weighed, and stored into glass vials. One mL of deionized water was added to each tissue sample, subjected to ultrasonic homogenization at 15 W power for 1 minute, followed by lyophilization.
Plasma and tissue concentrations of Ru and Au were measured using inductively coupled plasma–mass spectrometry (ICP‐MS). […] All samples were then mixed with 40 ppb of indium internal standard and analyzed using a Thermo Scientific XSERIES 2 ICP‐MS coupled with ESI PC3 Peltier cooled spray chamber, SC‐FAST injection loop, and SC‐4 autosampler. All the elements were measured using He/H2 collision‐reaction mode.
Pharmacokinetic parameters were obtained from the plasma concentration–time profiles by noncompartmental analysis using Phoenix WinNonlin 6.4 version 6.4 (Pharsight Corporation, Mountain View, CA). […] Concentrations of ruthenium and gold in liver, kidney, and tumors were also determined.

The nature of data set [2]: Hematology values (complete blood count) after the trial. The data set is classed as in vivo, NOD-SCID mice. Particulars: manual differential, blood 72h after last dose, 21 day trial; reference range 0.00-0.39. As to the method: Supplementary Table 2. Summary of hematology values (mean) for three specimens (collected 72h after the last dose of 10mg/kg/72h at the end of a 21 day trial (NOD/LtSz-Prkdscid/j. Complete blood counts of each group (n = 3 mice per group). Heparinized blood acquired from mice was assessed using the automatic Hematology Analyzer. Blood smears were carried out and fixed with methanol, stained, and observed under the microscope to carry out differential blood white cell counts.

A short description of data set [3]: Plasma chemistry parameters after the trial. The data set is classed as in vivo, tumor bearing NOD-SCID mice. Particulars: plasma 72h after last dose of 10mg/kg/72h, 21 day trial. As to the method: Supplementary Table 1. Summary of plasma chemistry parameters metabolic analytes for three specimens (collected 72h after the last dose of 10mg/kg/72h at the end of a 21 day trial) from 3 tumor bearing NOD-SCID (NOD/LtSz-Prkdscid/j. The study criteria reflect pathological criterion used in clinical studies. Metabolic markers were quantified from freshly isolated plasma and compared to reference range.

Data set [4] can be described thus: Maximum tolerated dose (MTD) of RANCE‐1, ip. The data set is classed as in vivo, NOD.CB17‐Prkdc SCID/J mice. As to the method:
Following 6 intraperitoneal (ip) doses between 30 mg/kg/48 h and 50 mg/kg/48 h followed by a 2‐week recovery period. Vehicle solution (0.5% DMSO + 99.5% normal saline) treated mice were used as controls. Lung, liver, kidney, spleen, and heart were collected, weighed and visually evaluated during a gross necropsy. Parameters such as physical distress and mortality were monitored.

In the case of “[Cl2(p‐cymene)Ru(μ‐dppm)Au(IMes)]ClO4 [RANCE‐1]”, the ke in data set [1] is reported as 0.0196 ± 0.0088 h^‐1. Moreover, in data set [2], the “EO#” value turned out to be 0.01667 K/uL. In data set [3], the A/G ratio is given as 0.99 and the Na/K ratio stood at 13.89. For the same substance, the BUN/CREA ratio in data set [3] (marked *▴) was found to be 183.33. The substance also showed a TP in data set [3] (reference range 4.8-7.2) of 5.2 g/dL. This substance had a BUN in data set [3] (reference range 5.0-28) of 18.33 mg/dL. The substance also yielded a K in data set [3] (reference range 7.3-11.1) of 10.97 mEq/L. Further, the Ca in data set [3] (reference range 9.5-12.5) worked out at 9.67 mg/dL. This substance also gave a Na in data set [3] (reference range 145-181) of 150.67 mEq/L. The substance further had a CK in data set [3] (reference range 428-1609, marked *▾ ◎) of 368.67 U/L. The substance also displayed a Relatively safe dose in data set [4] (2 week treatment) of no more than 35 mg/kg. In data set [4] (MTD study), the “Local toxicity in the peritoneal cavity at gross necropsy” value is recorded as “no obvious signs of local toxicity”.
